Measured properties of organic chemicals

The melting point is given in degrees Celsius.
The boiling point refers to atmospheric pressure (760 mmHg), by the definition of the set.
The octanol-water partition coefficient is given as log10; larger values mean a more lipophilic compound.
Water solubility is log10 of mol/L, nominally at 25 °C; higher is more soluble.
Vapor pressures (log10 mmHg) refer to near room temperature, 15 to 30 °C; higher is more volatile.
The unbound fraction in human plasma runs from 0 (all bound) to 1 (all free).
"n/a" marks a cell with nothing listed here.

SMILES,MP (°C),boiling point (°C),logP,water solubility (log10 mol/L),vapor pressure (log10 mmHg),fu
CC(=O)COc1c(C)cccc1C,n/a,n/a,2.3,-1.919,n/a,n/a
O=S(=O)([O-])c1cc(O)c2ccc3c(S(=O)(=O)[O-])cc(S(=O)(=O)[O-])c4ccc1c2c34.[Na+].[Na+].[Na+],240,n/a,-0.68,n/a,n/a,n/a
C=CC(=O)OCC(O)COc1ccccc1 (stereo unspecified),-48.1,n/a,2.03,n/a,n/a,n/a
Cc1ccc(C(C)(C)C)c(O)c1,n/a,n/a,4.11,-2.673,-1.648,n/a
CCOc1nc2cccc(C(=O)O)c2n1Cc1ccc(-c2ccccc2-c2nc(=O)o[nH]2)cc1,213,n/a,0.9,n/a,n/a,n/a
CC1=CCC(C(C)CC=O)CC1 (stereo in doubt),n/a,n/a,n/a,-2.796,-0.512,n/a
CC(C)=CCC/C(C)=C/COC=O,n/a,n/a,4.1,-3.746,-1.037,n/a
c1ccc(CC2=NCCN2)cc1,n/a,n/a,n/a,-2.071,n/a,0.77
C=CCCCCCCCCC(=O)OC,n/a,n/a,n/a,-5.398,0.244,n/a
CCCC1CCCC(C2CCCC(c3cc(F)c(F)c(F)c3)C2)C1 (stereo unspecified),65.6,n/a,n/a,-5.831,-6.117,n/a
CCN(CC)C(=O)N1CCN(C)CC1,n/a,n/a,0.1,0.073,n/a,n/a
CCCCCC(CN)CCC (stereo unspecified),-56,208.2,n/a,-2.746,-0.853,n/a
O=[N+]([O-])c1cc(OCc2ccccc2)ccc1C=CN1CCCC1,110.5,n/a,2.8,n/a,-8.646,n/a
OCCCCCCCCCO,n/a,n/a,1.69,n/a,-4.469,n/a
CC(=O)CC(=O)OCCOC(=O)CC(C)=O,n/a,n/a,-0.9,n/a,-4.378,n/a
Nc1cccc(OC2(Oc3cccc(N)c3)C=CC(c3ccccc3)=CC2)c1,n/a,n/a,3.2,-8.268,-6.347,n/a
CC(CO)CCCC1CCCCC1 (stereo unspecified),-32.5,267.5,5.3,-4.021,-2.782,n/a
CCCCC(CC)COC(=O)CCS (stereo unspecified),n/a,n/a,4.9,-3.583,-1.17,n/a
CC(=O)Nc1ccc(NC(=O)c2cc3ccccc3cc2O)cc1,270,n/a,3.1,-5.25,n/a,n/a
CC(=O)Nc1ccc(-c2ccc(NC(C)=O)cc2)cc1,328.4,n/a,1.97,n/a,n/a,n/a
CC(=O)C(=O)CC(C)C,-16.7,n/a,n/a,n/a,0.939,n/a
Cc1cc(=O)oc2cc(OCC(=O)[O-])c(O)cc12.[Na+],236,n/a,1,-1.187,n/a,n/a
CC(=O)OCC1=C(C(=O)O)N2C(=O)[C@@H](NC(=O)CC#N)[C@H]2SC1,n/a,n/a,n/a,-2.145,n/a,0.8
Nc1cccc(S(=O)(=O)c2cccc(N)c2)c1,n/a,n/a,n/a,-3.512,-4.725,n/a
Nc1ccc(/N=N/c2ccc(S(=O)(=O)Nc3ccc(/N=N/c4c(S(=O)(=O)[O-])cc5cc(S(=O)(=O)[O-])c(/N=N/c6ccccc6)c(O)c5c4N)cc3)cc2)c(N)c1.[Na+].[Na+],190,n/a,-1.86,n/a,n/a,n/a
O=C1NC(=O)c2ccc3c4ccc5c6c(ccc(c7ccc1c2c73)c64)C(=O)NC5=O,n/a,n/a,0.8,-7.571,n/a,n/a
CC(=O)OC(C)CC(C)(C)c1ccccc1 (stereo unspecified),-82,n/a,3.55,-3.416,-1.475,n/a
CCCCCCCCCCCCCCCCCCO[Si](C)(C)C,13.9,n/a,4.1,-6.836,n/a,n/a
CCCCCCN(CCCCCC)CCCCCC,n/a,n/a,4.47,-4.81,-2.567,n/a
COc1cc(Br)c(C=O)cc1O,n/a,n/a,2.2,-3.274,-5.468,n/a
C=CC(=O)NCC(OC)OC,-38,n/a,-0.3,n/a,-2.952,n/a
CCOC(=O)c1ccc2sc3ccccc3c(=O)c2c1,128.5,n/a,4.97,-6.757,n/a,n/a

A selection of 4 entries from above:

SMILES,MP (°C),boiling point (°C),logP,water solubility (log10 mol/L),vapor pressure (log10 mmHg),fu
CCCC1CCCC(C2CCCC(c3cc(F)c(F)c(F)c3)C2)C1 (stereo unspecified),65.6,n/a,n/a,-5.831,-6.117,n/a
CCCCCC(CN)CCC (stereo unspecified),-56,208.2,n/a,-2.746,-0.853,n/a
Cc1cc(=O)oc2cc(OCC(=O)[O-])c(O)cc12.[Na+],236,n/a,1,-1.187,n/a,n/a
CC(=O)Nc1ccc(-c2ccc(NC(C)=O)cc2)cc1,328.4,n/a,1.97,n/a,n/a,n/a

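The OPERA project collected these measurements from public sources as training and test data for property models. A listed value is a point estimate from one report or more. Conditions of the individual experiments are not part of the data. A value may pool stereoisomers or salt forms, and the file does not say which form was measured. Some upstream entries may be estimates or bounds without being marked so.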

From the experimental data distributed with OPERA 2.9.